According to patent EP4834902A1, “THIAZOLYL-PYRAZOLO[1,5-A]PYRIDINE COMPOUND AND USE THEREOF AS MYLK4 INHIBITOR” (dated 2026):

Tests used:
[1] = tested on: Normotensive rabbits; assay: Intraocular pressure lowering effect by single instillation (normotensive rabbits); details: 50 µL single instillation, n=4
Procedure: Compounds 129, 6, 53, and 130, as well as compound 74 in its free form, were formulated at various concentrations with a solubilizing agent, isotonic agent, preservative, and pH adjuster in purified water to prepare eye drops (test compound solutions). In addition, a solution prepared in the same manner, but without the compound, was used as a blank.
Normotensive rabbits (Kbl:NZW, male, 11 to 12 weeks old) were used for the experiment. 50 µL of the blank was instilled to the left eye, and 50 µL of the test compound solution was instilled to the right eye. The same test compound solution was instilled in the same animal at increasing concentrations, and each instillation was performed at intervals of one week.
(§1) 0.4% benoxyl ophthalmic solution (Santen Pharmaceutical Co., Ltd.) was instilled to achieve topical anesthesia, and then the intraocular pressure was measured using a pneumatic applanation tonometer (Model 30 Classic, Reichert, Inc.). Intraocular pressure measurements were performed before administration (0 hours), and 0.5, 1, 2, 4, 8, and 24 hours after administration of the blank or the test compound solution.
Each IOP was an average value of three measurements, and the change in intraocular pressure (ΔIOP) was calculated as the difference between the IOP at each time point and the IOP at 0 h (before instillation) for each individual.

[2] = tested on: Cynomolgus normotensive monkeys; assay: Intraocular pressure lowering effect by single instillation (normotensive monkeys); details: 30 µL single instillation, n=2
Procedure: The hydrochloride of compound 129 was added to purified water together with a solubilizing agent, an isotonic agent, a preservative, and a pH adjuster at final concentrations of 0.05 mg/mL and 4 mg/mL to prepare eye drops (test compound solutions). In addition, a solution prepared in the same manner, but without the compound, was used as a blank.
Cynomolgus normotensive monkeys (male, 7 years old) were used for the experiment. A 30 µL aliquot of the blank was instilled to the left eye, and a 30 µL aliquot of the test compound solution was instilled to the right eye. Test compound solutions at different concentrations were administered to the same animal at one-week intervals.
as §1
Each IOP was calculated as an average value of three measurements, and the change in intraocular pressure (ΔIOP) was calculated as the difference between the IOP at each time point and the IOP at 0 h (before administration).

[3] = 0.05 mg/mL eye drop, 0h (before instillation)
[4] = 0.15 mg/mL eye drop, 0h (before instillation)
[5] = 1 mg/mL eye drop, 0h (before instillation)
[6] = 4 mg/mL eye drop, 0h (before instillation)

Compound	Average ΔIOP [1, 3] [mmHg]	Average ΔIOP ([1]; 0.05 mg/mL eye drop, 0.5h) [mmHg]	Average ΔIOP ([1]; 0.05 mg/mL eye drop, 1h) [mmHg]	Average ΔIOP ([1]; 0.05 mg/mL eye drop, 2h) [mmHg]	Average ΔIOP ([1]; 0.05 mg/mL eye drop, 4h) [mmHg]	Average ΔIOP ([1]; 0.05 mg/mL eye drop, 8h) [mmHg]	Average ΔIOP ([1]; 0.05 mg/mL eye drop, 24h) [mmHg]	Average ΔIOP [1, 4] [mmHg]	Average ΔIOP ([1]; 0.15 mg/mL eye drop, 0.5h) [mmHg]	Average ΔIOP ([1]; 0.15 mg/mL eye drop, 1h) [mmHg]	Average ΔIOP ([1]; 0.15 mg/mL eye drop, 2h) [mmHg]	Average ΔIOP ([1]; 0.15 mg/mL eye drop, 4h) [mmHg]	Average ΔIOP ([1]; 0.15 mg/mL eye drop, 8h) [mmHg]	Average ΔIOP ([1]; 0.15 mg/mL eye drop, 24h) [mmHg]	Average ΔIOP [1, 5] [mmHg]	Average ΔIOP ([1]; 1 mg/mL eye drop, 0.5h) [mmHg]	Average ΔIOP ([1]; 1 mg/mL eye drop, 1h) [mmHg]	Average ΔIOP ([1]; 1 mg/mL eye drop, 2h) [mmHg]	Average ΔIOP ([1]; 1 mg/mL eye drop, 4h) [mmHg]	Average ΔIOP ([1]; 1 mg/mL eye drop, 8h) [mmHg]	also measured
CNCc1ccc(-c2csc(-c3cnn4ccccc34)n2)cn1	0.0	0.2	0.3	0.2	0.1	0.6	0.2	0.0	-0.2	-0.1	-0.5	-0.5	0.4	-0.3	0.0	-0.4	-0.8	-2.0	-1.4	0.0	Average ΔIOP ([1]; 1 mg/mL eye drop, 24h): -0.5 mmHg; Average ΔIOP [1, 6]: 0.0 mmHg; Average ΔIOP ([1]; 4 mg/mL eye drop, 0.5h): -0.5 mmHg; Average ΔIOP ([1]; 4 mg/mL eye drop, 1h): -0.7 mmHg; Average ΔIOP ([1]; 4 mg/mL eye drop, 2h): -2.2 mmHg; Average ΔIOP ([1]; 4 mg/mL eye drop, 4h): -1.4 mmHg; Average ΔIOP ([1]; 4 mg/mL eye drop, 8h): 0.6 mmHg; Average ΔIOP ([1]; 4 mg/mL eye drop, 24h): 0.1 mmHg
O=C([O-])c1cccc(-c2csc(-c3cnn4ccccc34)n2)c1.[Na+]	0.0	0.0	0.1	-0.3	-0.3	0.3	0.1	0.0	0.1	–	–	-0.9	–	–	0.0	–	-0.4	–	-1.7	0.3	Average ΔIOP ([1]; 1 mg/mL eye drop, 24h): -0.4 mmHg; Average ΔIOP [1, 6]: 0.0 mmHg; Average ΔIOP ([1]; 4 mg/mL eye drop, 4h): -1.7 mmHg
CC(=O)NCc1ccc(-c2csc(-c3cnn4ccccc34)n2)cn1	0.0	-0.9	-1.8	-2.3	-0.3	1.2	0.1	0.0	-1.4	-2.0	-3.3	-2.0	0.0	-0.9	0.0	-1.2	-0.7	-2.3	-2.3	1.4	Average ΔIOP ([2]; 0.05 mg/mL eye drop, 0h (before administration)): 0.0 mmHg; Average ΔIOP ([2]; 0.05 mg/mL eye drop, 0.5h): -0.8 mmHg; Average ΔIOP ([2]; 0.05 mg/mL eye drop, 2h): -2.5 mmHg; Average ΔIOP ([2]; 0.05 mg/mL eye drop, 8h): -0.7 mmHg; Average ΔIOP ([2]; 0.05 mg/mL eye drop, 24h): -0.2 mmHg; Average ΔIOP ([2]; 4 mg/mL eye drop, 0h (before administration)): 0.0 mmHg; Average ΔIOP ([2]; 4 mg/mL eye drop, 0.5h): -0.7 mmHg; Average ΔIOP ([2]; 4 mg/mL eye drop, 1h): -2.1 mmHg; Average ΔIOP ([2]; 4 mg/mL eye drop, 2h): -3.7 mmHg; Average ΔIOP ([2]; 4 mg/mL eye drop, 4h): -2.2 mmHg; Average ΔIOP ([2]; 4 mg/mL eye drop, 8h): -1.7 mmHg; Average ΔIOP ([2]; 4 mg/mL eye drop, 24h): -0.6 mmHg; Average ΔIOP ([1]; 1 mg/mL eye drop, 24h): -0.2 mmHg; Average ΔIOP [1, 6]: 0.0 mmHg; Average ΔIOP ([1]; 4 mg/mL eye drop, 0.5h): -2.6 mmHg; Average ΔIOP ([1]; 4 mg/mL eye drop, 1h): -2.0 mmHg; Average ΔIOP ([1]; 4 mg/mL eye drop, 2h): -4.3 mmHg; Average ΔIOP ([1]; 4 mg/mL eye drop, 4h): -2.9 mmHg; Average ΔIOP ([1]; 4 mg/mL eye drop, 8h): -0.4 mmHg; Average ΔIOP ([1]; 4 mg/mL eye drop, 24h): -0.4 mmHg
Cn1cc(Cl)c(-c2csc(-c3cnn4ccccc34)n2)n1	0.0	-2.0	-3.2	-4.1	-2.2	-0.5	-0.9	0.0	-2.1	-3.0	-3.8	-3.2	0.2	-0.5	0.0	-2.0	-3.0	-3.9	-3.8	–	Average ΔIOP ([1]; 1 mg/mL eye drop, 24h): -0.4 mmHg; Average ΔIOP [1, 6]: 0.0 mmHg; Average ΔIOP ([1]; 4 mg/mL eye drop, 0.5h): -2.1 mmHg; Average ΔIOP ([1]; 4 mg/mL eye drop, 1h): -3.1 mmHg; Average ΔIOP ([1]; 4 mg/mL eye drop, 2h): -4.4 mmHg; Average ΔIOP ([1]; 4 mg/mL eye drop, 4h): -4.0 mmHg; Average ΔIOP ([1]; 4 mg/mL eye drop, 8h): -1.3 mmHg; Average ΔIOP ([1]; 4 mg/mL eye drop, 24h): -0.4 mmHg
CNCc1ccc(-c2csc(-c3cnn4ccccc34)n2)cc1.Cl	0.0	0.1	0.1	0.1	-0.1	0.2	–	0.0	-0.3	-0.3	-0.4	-0.4	0.4	0.1	0.0	-0.9	-0.5	-1.4	–	-0.3	–
